Article PMC9425029, “Secretagogin is a Ca^2+-dependent stress-responsive chaperone that may also play a role in aggregation-based proteinopathies” (The Journal of Biological Chemistry, 2022)

Biological target: Secretagogin (mouse SCGN) (mouse) (UniProt Q91WD9)
Assay: ITC; ITC-200, 30 °C; SCGN 60 μM in the cell, α-synuclein 600 μM in the syringe; Chelex-purified 50 mM Tris pH 7.5, 100 mM KCl, 2 mM Ca2+; one set of sites model

α-synuclein (from UniProt P37840 1-140) (natural protein)
pKd: 3.96 | dH: 0.00124 kcal/mol

pKd: −log10 of the molar value.
